Assay results as given in patent publication US20160158376A1 (priority 2013, published 2016).

Experiments:
hemolysis = assay: Hemolysis assay of the polyconjugate; assay type: cell-based
[1] = Solubility assay of the polyconjugate; assay type: physicochemical; settings: water, room temperature (22˜25° C.), as active drug
[2] = rabbits, i.v. 1 mg/kg
[3] = female rats, i.v., other groups (5, 10, 15 mg/kg), after completing the experiment

amphotericin B-hydroxyethyl starch polyconjugate [Preparation 22]
hemolytic concentration (concentration of the polyene macrolide substance at the initiation of hemolysis) (hemolysis): 0.4 mg/mL

poly-aspartic acid-mepartricin polyconjugate
solubility (amount of the soluble active drug) [1]: 0.27%

poly-glucosamine-amphotericin B polyconjugate [Preparation 3]
duration during which the serum concentration of drug is above 0.5 mg/L [2]: 17.41 h | AUC relative to the control ([2]; control = Amphotec): 1.77 times

poly-aspartic acid-amphotericin B polyconjugate [Preparation 1]
duration during which the serum concentration of drug is above 0.5 mg/L [2]: 18.4 h | time of serum concentration peak ([2]; free drug): 7.2 h | end of period with serum concentration above 0.5 mg/L ([2]; time after dosing): 19.2 h | start of period with serum concentration above 0.5 mg/L ([2]; time after dosing): 0.82 h | recovery of initial body weight [3]: regain the initial body weight | survival of animals [3]: all alive
